Laboratory results: patent US9663465B2, “Acetylcholinesterase inhibitors and promnesiant serotonin 5-HT4 receptor agonists, their methods of preparation and the pharmaceutical compositions containing the same” (UNIVERSITE DE CAEN, priority 2013, dated 2017)

Protein sequences, listed by entry. Tags and fused reporters are not part of them. Lines headed by an entry give the natural chain unless they say otherwise; changes in a name come on top. Chains listed by the source or under a name are the forms on record and can include a tag or linker. Residues count along the entry.
UniProt O70528: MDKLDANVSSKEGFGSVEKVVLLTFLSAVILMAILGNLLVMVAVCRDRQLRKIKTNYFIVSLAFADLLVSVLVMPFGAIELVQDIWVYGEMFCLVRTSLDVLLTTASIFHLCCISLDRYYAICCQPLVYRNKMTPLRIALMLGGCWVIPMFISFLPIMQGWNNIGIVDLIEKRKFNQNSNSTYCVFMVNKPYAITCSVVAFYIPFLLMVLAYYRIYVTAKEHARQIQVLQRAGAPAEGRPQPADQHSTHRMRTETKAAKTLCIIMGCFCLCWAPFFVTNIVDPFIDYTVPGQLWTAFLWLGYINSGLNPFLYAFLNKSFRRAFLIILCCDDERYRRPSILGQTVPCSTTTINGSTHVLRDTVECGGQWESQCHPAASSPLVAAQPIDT
UniProt P22303, 32-574 with tags or gaps limits assumed: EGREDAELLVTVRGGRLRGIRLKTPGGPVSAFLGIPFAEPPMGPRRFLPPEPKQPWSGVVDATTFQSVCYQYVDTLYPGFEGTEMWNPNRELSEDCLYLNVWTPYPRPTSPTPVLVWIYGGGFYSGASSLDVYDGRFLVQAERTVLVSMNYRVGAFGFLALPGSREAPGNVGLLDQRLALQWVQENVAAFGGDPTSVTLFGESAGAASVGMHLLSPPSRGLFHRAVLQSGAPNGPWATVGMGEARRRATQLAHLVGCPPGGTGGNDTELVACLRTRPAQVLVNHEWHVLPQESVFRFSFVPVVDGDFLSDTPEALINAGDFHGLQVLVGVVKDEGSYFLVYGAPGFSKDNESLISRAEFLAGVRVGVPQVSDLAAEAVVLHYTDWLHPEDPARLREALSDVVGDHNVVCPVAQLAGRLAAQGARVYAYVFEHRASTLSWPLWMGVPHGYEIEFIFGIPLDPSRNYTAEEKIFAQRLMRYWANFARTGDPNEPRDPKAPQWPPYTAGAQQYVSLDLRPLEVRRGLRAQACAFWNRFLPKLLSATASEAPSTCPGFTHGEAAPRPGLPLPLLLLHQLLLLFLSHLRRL

target: 5-HT4 receptors (Cavia porcellus (Guinea pig), UniProt O70528); assay: Affinity as regards 5-HT4 receptors: competition against [3H]-GR113808 on striatal membranes; conditions: read-out: Ki in nM; 0.1 nM [3H]-GR113808, guinea pig striatal membranes

| Structure (SMILES) | Ki [nM] |
| --- | --- |
| COc1cc(N)c(Cl)cc1C(=O)CCC1CCN(CC2CC2)CC1 [Compound 6, 1-(4-amino-5-chloro-2-methoxyphenyl)-3-[1-(cyclopropylmethyl)-4-piperidyl]propan-1-one] | 14.8 |
| COc1cc(N)c(Cl)cc1C(=O)CCC1CCN(CC2CCC2)CC1 [Compound 7, 1-(4-amino-5-chloro-2-methoxyphenyl)-3-[1-(cyclobutylmethyl)-4-piperidyl]propan-1-one] | 8.8 |
| COc1cc(N)c(Cl)cc1C(=O)CCC1CCN(CC2CCNCC2)CC1 [Compound 13, 1-(4-amino-5-chloro-2-methoxyphenyl)-3-[1-[(piperidin-4-yl)methyl]-4-piperidyl] propan-1-one dichlorohydrate] | 2.5 |
| COc1cc(N)c(I)cc1C(=O)CCC1CCN(CC2CCCCC2)CC1 [Compound 15, 1-(4-amino-5-iodo-2-methoxyphenyl)-3-[1-(cyclohexylmethyl)-4-piperidyl]propan-1-one] | 18.1 |

target: human acetylcholinesterase (Homo sapiens (Human), UniProt P22303); assay: not given; format: biochemical; conditions: acetylcholinesterase from human erythrocytes

| Structure (SMILES) | IC50 [nM] |
| --- | --- |
| COc1cc(N)c(Cl)cc1C(=O)CCC1CCN(CC2CC2)CC1 [Compound 6, 1-(4-amino-5-chloro-2-methoxyphenyl)-3-[1-(cyclopropylmethyl)-4-piperidyl]propan-1-one] | 937 |
| COc1cc(N)c(Cl)cc1C(=O)CCC1CCN(CC2CCCCC2)CC1 [Compound 9, 1-(4-amino-5-chloro-2-methoxyphenyl)-3-[1-(cyclohexylmethyl)-4-piperidyl]propan-1-one] | 63 |
| COc1cc(N)c(Cl)cc1C(=O)C(C)CC1CCN(CC2CCCCC2)CC1 (stereo not shown) [Compound 10, 1-(4-amino-5-chloro-2-methoxyphenyl)-3-[1-(cyclohexylmethyl)-4-piperidyl]-2 methylpropan-1-one] | 201 |
| COc1cc(N)c(Br)cc1C(=O)CCC1CCN(CC2CCCCC2)CC1 [Compound 14, 1-(4-amino-5-bromo-2-methoxyphenyl)-3-[1-(cyclohexylmethyl)-4-piperidyl]propan-1-one] | 99 |
| COc1cc(N)c(Cl)cc1C(=O)CCC1CCN(CCC2CCCCC2)CC1 [Compound 16, 1-(4-amino-5-chloro-2-methoxyphenyl)-3-[1-(cyclohexylethyl)-4-piperidyl]propan-1-one] | 222 |
| COc1cc(N)c(Cl)cc1C(=O)OCC1CCN(CC2CCCCC2)CC1 [Compound 20, [1-(cyclohexylmethyl)-4-piperidyl]methyl 4-amino-5-chloro-2-methoxybenzoate] | 2720 |
